Patent publication US20240197737A1, “APPLICATION OF COMPOUND IN PREPARATION OF INHIBITORY DRUG TARGETING ERBB2 MUTANT” (SHANGHAI PHARMACEUTICALS HOLDING CO., LTD., priority 2021, published 2024)

Tested on: Ba/F3 ErbB2 A775_G776insYVMA
Assay: ErbB2 mutant cell inhibition test (CTG, 72 hours)
Type: cell-based
Settings: Ba/F3 ErbB2 A775_G776insYVMA mutant cell line
Method: Cells were cultured, harvested during their logarithmic growth phase, and counted using a platelet counter. Cell viability was verified to be above 90% by trypan blue exclusion assay. After in vitro culture, 2×10^6 cells were obtained. The cell suspension was aliquoted into a 96-well plate at 1×10^3 cells per well (90 μL/well), and incubated overnight under conditions of 37° C., 5% CO2, and 95% humidity. A 10× drug solution was prepared, with a maximum concentration of 10 μM for the assay, and serially diluted 3-fold to nine concentrations. 10 μL of the drug solution was added to each well of the 96-well plate inoculated with the cells, and three duplicate wells were set for each drug concentration. The 96-well plate, now containing the drug-treated cells, was cultured under conditions of 37° C., 5% CO2, and 95% humidity for an additional 72 hours before CTG analysis was performed.

Structure (SMILES): CS(=O)(=O)CCNCc1ccc(-c2ccc3ncnc(Nc4ccc(OCc5cccc(F)c5)c(Cl)c4)c3c2)o1 [Lapatinib, reference compound]
- Inhibitory activity on cell proliferation (in words): good inhibitory activity
